## Antibody variant affinities, Ab-14 heavy chain, assay B

Target: peptide PDVDLGDISGINAS, taken from heptad repeat 2 (HR2) of SARS-CoV-2 spike.

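Phage display of a naive human antibody library on the peptide gave the parent. This is the validation round: designs drawn from the data on random variants, tested in the same kind of assay. Their group label is 14H_En_HC (En: ensemble of fine-tuned language models; HC: hill climbing; a sequence that several methods proposed may carry one label only). Affinity was read by AlphaSeq, a pooled yeast mating assay with surface-displayed partners. Pairs that bind mate more often; barcode pairs of the diploids are counted by sequencing. Scores were corrected for input abundance and mapped to Kd with protein pairs of known affinity run in the same pool. Each pool was mated in six replicate cultures.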

Parent scFv Ab-14: VH joined to VL by the linker GGGGSGGGGSGGGGS. Changes lie in the heavy chain CDRs alone.
VH: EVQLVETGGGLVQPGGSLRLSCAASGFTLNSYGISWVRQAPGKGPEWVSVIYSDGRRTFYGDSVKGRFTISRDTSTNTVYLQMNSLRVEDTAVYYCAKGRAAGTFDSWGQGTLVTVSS
VL: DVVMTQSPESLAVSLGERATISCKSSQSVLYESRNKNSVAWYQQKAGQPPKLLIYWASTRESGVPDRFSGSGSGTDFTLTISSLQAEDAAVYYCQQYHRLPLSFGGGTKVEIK

Variants are written as CDR1, CDR2 and CDR3 of the heavy chain (limits as in the source). Parent: GFTLNSYGIS, VIYSDGRRTFYGDSVK, GRAAGTFDS.
Affinities are written as log10 Kd with Kd in nM; a lower number is a better binder.
The mean shown is taken over the replicates in which the pair was detected.
"ND" marks a missing value. The strain was present, yet no cells mated with the target were sequenced in that replicate, which points to weak or no binding.

{"CDR-H1": "GFDLNEYGIS", "CDR-H2": "VIYADGKRTFYADSVK", "CDR-H3": "GNEAGTFDM", "replicates, log10 nM": "-0.48 -0.52 -0.67 -0.73 -0.32 -0.43", "mean, log10 nM": "-0.52", "empty controls": "1/18 (2.13)"}
{"CDR-H1": "GFNLEDYGIS", "CDR-H2": "VIYADGRRTAYADSVK", "CDR-H3": "GEVAGTFDV", "replicates, log10 nM": "-0.33 -0.58 -0.83 -0.98 -0.49 -0.56", "mean, log10 nM": "-0.63", "empty controls": "0/18"}
{"CDR-H1": "GFDLNEYGIS", "CDR-H2": "VIYADGRRTFYADSVK", "CDR-H3": "GEAAGTFTL", "replicates, log10 nM": "ND ND ND ND ND ND", "mean, log10 nM": "ND", "empty controls": "0/18"}
{"CDR-H1": "GFDLNEYGIS", "CDR-H2": "VIYADGMRTQYSDSVK", "CDR-H3": "GNAAGTFDS", "replicates, log10 nM": "0.17 0.13 0.08 0.11 0.16 -0.07", "mean, log10 nM": "0.10", "empty controls": "1/18 (1.20)"}
{"CDR-H1": "GFDLNEYGIS", "CDR-H2": "VIYADGKRTFYSDSVK", "CDR-H3": "GNTAGTFDV", "replicates, log10 nM": "0.38 -0.16 0.13 -0.05 -0.10 0.33", "mean, log10 nM": "0.09", "empty controls": "1/18 (1.28)"}
{"CDR-H1": "GFDLDEYGIS", "CDR-H2": "VIYADGRRTFYQDSVK", "CDR-H3": "GQIAGTFDQ", "replicates, log10 nM": "0.05 -0.30 0.42 0.06 -0.27 -0.41", "mean, log10 nM": "-0.08", "empty controls": "1/18 (2.09)"}
{"CDR-H1": "GFDLNEYGIS", "CDR-H2": "VIYADGRRTFYSDSVK", "CDR-H3": "GQLAGTFDN", "replicates, log10 nM": "-0.43 -0.61 -0.57 -0.77 -0.78 -0.49", "mean, log10 nM": "-0.61", "empty controls": "0/18"}
{"CDR-H1": "GFNLNEYGIS", "CDR-H2": "VIYADGRRTFYADSVK", "CDR-H3": "GEIAGTFDM", "replicates, log10 nM": "-0.62 -1.05 -1.49 -1.35 -0.80 -1.06", "mean, log10 nM": "-1.06", "empty controls": "0/18"}
{"CDR-H1": "GFDLDEYGIS", "CDR-H2": "VIYADGRRTFYADSVK", "CDR-H3": "GTVAGTFDA", "replicates, log10 nM": "-0.16 -0.46 -0.63 -0.58 -0.34 -0.40", "mean, log10 nM": "-0.43", "empty controls": "1/18 (2.11)"}
{"CDR-H1": "GFDLNEYGIS", "CDR-H2": "VIYADGRRTFYTDSVK", "CDR-H3": "GNAAGTFDV", "replicates, log10 nM": "0.24 -0.36 0.13 -0.07 0.37 -0.02", "mean, log10 nM": "0.05", "empty controls": "0/18"}
{"CDR-H1": "GFNLDEYGIS", "CDR-H2": "VIYADGRRTFYQDSVK", "CDR-H3": "GEGAGTFDM", "replicates, log10 nM": "0.68 1.04 -0.42 0.01 1.65 -0.20", "mean, log10 nM": "0.46", "empty controls": "0/18"}
{"CDR-H1": "GFNLNEYGIS", "CDR-H2": "VIYADGRRTFYADSVK", "CDR-H3": "GEVAGTFDM", "replicates, log10 nM": "-0.27 -0.30 -0.55 -0.40 -0.25 -0.47", "mean, log10 nM": "-0.37", "empty controls": "0/18"}
{"CDR-H1": "GFDLNEYGIS", "CDR-H2": "VIYADGRRTFYVDSVK", "CDR-H3": "GQTAGTFNV", "replicates, log10 nM": "-0.27 -0.28 -0.40 -0.59 -0.26 -0.26", "mean, log10 nM": "-0.34", "empty controls": "2/18 (3.44)"}
{"CDR-H1": "GFNLNEYGIS", "CDR-H2": "VIYADGMRTFYADSVK", "CDR-H3": "GQVAGTFDV", "replicates, log10 nM": "-0.29 -0.36 -0.50 -0.77 -0.68 -0.54", "mean, log10 nM": "-0.52", "empty controls": "0/18"}
{"CDR-H1": "GFNLNEYGIS", "CDR-H2": "VIYADGMRTFYADSVK", "CDR-H3": "GEHAGSFDI", "replicates, log10 nM": "-0.21 -0.61 -0.84 -1.17 -1.11 -0.29", "mean, log10 nM": "-0.71", "empty controls": "0/18"}
{"CDR-H1": "GFDLNEYGIS", "CDR-H2": "VIYADGRRTFYQDSVK", "CDR-H3": "GEIAGTFDQ", "replicates, log10 nM": "ND -0.52 -0.16 0.92 1.40 -0.25", "mean, log10 nM": "0.28", "empty controls": "0/18"}
{"CDR-H1": "GFNLDEYGIS", "CDR-H2": "VIYADGRRTAYADSVK", "CDR-H3": "GSHAGTFDT", "replicates, log10 nM": "-1.01 -0.97 -0.42 -1.50 -1.26 -1.26", "mean, log10 nM": "-1.07", "empty controls": "0/18"}
{"CDR-H1": "GFDLNEYGIS", "CDR-H2": "VIYADGMRTAYIDSVK", "CDR-H3": "GNQAGTFDQ", "replicates, log10 nM": "-1.36 -1.60 -0.97 -1.88 -1.29 -0.75", "mean, log10 nM": "-1.31", "empty controls": "0/18"}
{"CDR-H1": "GFDLNEYGIS", "CDR-H2": "VIYADGMRTFYTDDVK", "CDR-H3": "GEVAGTFDM", "replicates, log10 nM": "0.54 -0.79 -0.03 1.22 -0.74 -0.60", "mean, log10 nM": "-0.07", "empty controls": "0/18"}
{"CDR-H1": "GFNLNEYGIS", "CDR-H2": "VIYADGMRTVYADSVK", "CDR-H3": "GQIAGTFDV", "replicates, log10 nM": "0.40 -0.02 -0.52 -0.65 -0.08 -0.56", "mean, log10 nM": "-0.24", "empty controls": "1/18 (1.38)"}
{"CDR-H1": "GFDLEDYGIS", "CDR-H2": "VIYADGQRTFYSDSVK", "CDR-H3": "GEIAGTFDS", "replicates, log10 nM": "0.05 -0.10 -0.33 -0.46 -0.23 -0.10", "mean, log10 nM": "-0.19", "empty controls": "0/18"}
{"CDR-H1": "GFDLNEYGIS", "CDR-H2": "VIYADGRRTFYSDSVK", "CDR-H3": "GTVGGTFDA", "replicates, log10 nM": "-0.10 -0.07 -0.10 -0.12 -0.07 0.04", "mean, log10 nM": "-0.07", "empty controls": "0/18"}
{"CDR-H1": "GFDLNEYGIS", "CDR-H2": "VIYADGRRTFYSDSVK", "CDR-H3": "GNVGGTFDS", "replicates, log10 nM": "0.14 -0.15 0.08 0.25 -0.21 -0.07", "mean, log10 nM": "0.01", "empty controls": "0/18"}
{"CDR-H1": "GFDLNEYGIS", "CDR-H2": "VIYADGRRTAYIDSVK", "CDR-H3": "GSNAGTFDV", "replicates, log10 nM": "-0.47 -0.59 -0.69 -0.74 -0.79 -0.63", "mean, log10 nM": "-0.65", "empty controls": "2/18 (2.87)"}

3 of these entries, quoted again:

CDR-H1,CDR-H2,CDR-H3,"replicates, log10 nM","mean, log10 nM",empty controls
GFNLDEYGIS,VIYADGRRTFYQDSVK,GEGAGTFDM,0.68 1.04 -0.42 0.01 1.65 -0.20,0.46,0/18
GFDLNEYGIS,VIYADGKRTFYSDSVK,GNTAGTFDV,0.38 -0.16 0.13 -0.05 -0.10 0.33,0.09,1/18 (1.28)
GFDLNEYGIS,VIYADGMRTFYTDDVK,GEVAGTFDM,0.54 -0.79 -0.03 1.22 -0.74 -0.60,-0.07,0/18

Of ten entries with the parent sequence, four were seen in most replicates (averages 0.34 to 2.37), three in one and three in none, so single entries are noisy.
The authors averaged sequences with at least three values out of six and counted those with two or fewer as poor binders.
Background: pairings of all heavy chain designs with three empty control strains gave a value in 1% of cases (median 2.08, 5th percentile 0.84). Values in that range, when seen in few replicates, are hard to tell from nonspecific mating. For each scFv, signals with the empty controls are counted beside the result, with their mean in brackets.
The range of this assay differs from that of the first round, and the authors advise against merging the two.

From the AlphaSeq antibody data of Li et al. 2023 (doi:10.1038/s41467-023-39022-2), copy in the FLAb collection.